Patent publication US20120208223A1, “FL[…] ENERGY TRANSFER ENZYME SUBSTRATES” (GE […], priority 2004, published 2012)

Amino acid sequences for entries named in this document (tags omitted). Residues count along the entry.
UniProt P07339, 65-412, species assumed: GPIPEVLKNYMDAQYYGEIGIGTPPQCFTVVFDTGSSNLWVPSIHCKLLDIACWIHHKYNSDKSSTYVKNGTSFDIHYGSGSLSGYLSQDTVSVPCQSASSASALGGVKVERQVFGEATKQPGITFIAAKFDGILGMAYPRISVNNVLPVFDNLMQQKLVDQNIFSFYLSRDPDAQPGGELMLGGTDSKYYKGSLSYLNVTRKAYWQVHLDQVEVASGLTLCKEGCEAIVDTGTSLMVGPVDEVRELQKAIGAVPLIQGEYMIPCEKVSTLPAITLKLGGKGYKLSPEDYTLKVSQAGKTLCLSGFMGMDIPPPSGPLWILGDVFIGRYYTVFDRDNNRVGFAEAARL

Biological target: cathepsin D (Homo sapiens, UniProt P07339)
Assay: Inhibition of cathepsin D enzyme activity by a known inhibitor using the method of the invention
Assay type: biochemical
Details: in the presence of 12 nM inhibitor
Source text: Assays may be performed according to the present invention in high throughput screening applications, including those in which test agents are screened for their inhibitory effects, potentiation effects, agonistic, or antagonistic effects on the enzyme reaction under investigation. Thus, in a preferred embodiment according to the second aspect, there is provided a method of screening for a test agent whose effect upon the activity of an enzyme in cleaving a substrate is to be determined. […]
The test agent may be, for example, any organic or inorganic compound such as a synthetic molecule or a natural product (e.g. peptide, oligonucleotide), or a may be an energy form (e.g. light or heat or other forms of electromagnetic radiation). Inhibitors of enzyme activity can be detected using the method according to the preferred embodiment; for example, the known inhibitor pepstatin A can be readily shown to inhibit cathepsin D enzyme activity using the method of the invention. […]
As an example, an assay for the detection of proteolytic enzyme activity may be configured as follows. […] Upon addition of enzyme, typically the reaction is allowed to proceed to completion, progress being monitored by observing the steady state fluorescence emission due to the fluorescent acceptor dye, which is recorded using a spectrofluorimeter. […]

## CC(C)CC(=O)N[C@H](C(=O)N[C@H](C(=O)N[C@@H](CC(C)C)[C@@H](O)CC(=O)N[C@@H](C)C(=O)N[C@@H](CC(C)C)[C@@H](O)CC(=O)O)C(C)C)C(C)C [pepstatin A]
  cathepsin D activity, fold less than in the absence of the inhibitor: ~5 fold
